# Values of other authors, collected in patent US9329190B2 (The General Hospital Corporation, priority 2011, dated 2016).
# Conditions: in circulation
substance,measurement,value
vitamin D,fraction of circulating hormone bound to albumin,10-15%
same,fraction of circulating hormone bound to vitamin D binding protein,85-90%
